In patent US20160303147A1 (priority 2007, published 2016):

Experiment: Pharmacokinetics in mouse and rabbit after CMX001
Details: in vivo; Mouse-Rabbit, dose 2 mg/kg CMX001 (calculated from mouse doses 2 and 10, rabbit doses 5 and 10 mg/kg); analyte = label
Text: Table 3 illustrates the PK comparison of CMX 001 with CMX 021 and CMX 064 for mouse, rabbit and human.

CCCCCCCCCCCCCCCCOCCCOP(=O)(O)CO[C@H](CO)Cn1ccc(N)nc1=O [CMX001]
Cmax: 7.9 to 18 ng/mL
